# Cyclic peptide permeability, from CycPeptMPDB

Collected by the curators of CycPeptMPDB (Li et al. 2023) from Kelly et al. 2021, doi:10.1021/jacs.0c06115.

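Conditions beyond the assay type are not listed; see the original paper. The list need not hold all peptides of the study. Peptides that the database sets to -10, its floor, are left out.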

PAMPA measures passive passage through an artificial lipid membrane.
Permeability is in 10^-6 cm/s, converted from the database's log10 values; higher is more permeable.

- CC(=O)N1CCC[C@@H]1C(=O)N(C)[C@@H](CC(C)C)C(=O)N[C@@H]1C(=O)N[C@H](CC(C)C)C(=O)N[C@H](CC(C)C)C(=O)N(C)[C@H](CC(C)C)C(=O)N[C@H](C)C(=O)N[C@H](CC(C)C)C(=O)N2CCC[C@@H]2C(=O)O[C@@H]1C: PAMPA 1 × 10^-6 cm/s
- CC(=O)N1CCC[C@@H]1C(=O)N(C)[C@H](CC(C)C)C(=O)N[C@@H]1C(=O)N[C@@H](CC(C)C)C(=O)N[C@@H](CC(C)C)C(=O)N(C)[C@H](CC(C)C)C(=O)N(C)[C@H](C)C(=O)N[C@@H](CC(C)C)C(=O)N2CCC[C@H]2C(=O)O[C@@H]1C: PAMPA 1.4 × 10^-6 cm/s
- CC(=O)N1CCC[C@H]1C(=O)N[C@@H]1C(=O)N[C@H](CC(C)C)C(=O)N(C)[C@@H](CC(C)C)C(=O)N(C)[C@@H](CC(C)C)C(=O)N(C)[C@@H](CC(C)C)C(=O)N[C@H](C)C(=O)N[C@@H](CC(C)C)C(=O)N2CCC[C@@H]2C(=O)O[C@@H]1C: PAMPA 7.6 × 10^-6 cm/s
- CC(=O)N1CCC[C@H]1C(=O)N(C)[C@@H](CC(C)C)C(=O)N[C@@H]1C(=O)N[C@H](CC(C)C)C(=O)N[C@H](CC(C)C)C(=O)N[C@H](CC(C)C)C(=O)N(C)[C@H](C)C(=O)N[C@@H](CC(C)C)C(=O)N2CCC[C@H]2C(=O)O[C@@H]1C: PAMPA 0.58 × 10^-6 cm/s
- CC(=O)N1CCC[C@H]1C(=O)N(C)[C@@H](CC(C)C)C(=O)N[C@@H]1C(=O)N[C@H](CC(C)C)C(=O)N[C@@H](CC(C)C)C(=O)N[C@H](CC(C)C)C(=O)N[C@H](C)C(=O)N[C@@H](CC(C)C)C(=O)N2CCC[C@H]2C(=O)O[C@@H]1C: PAMPA 0.17 × 10^-6 cm/s
- CC(=O)N1CCC[C@H]1C(=O)N(C)[C@@H](CC(C)C)C(=O)N[C@@H]1C(=O)N(C)[C@@H](CC(C)C)C(=O)N[C@@H](CC(C)C)C(=O)N(C)[C@H](CC(C)C)C(=O)N(C)[C@H](C)C(=O)N[C@@H](CC(C)C)C(=O)N2CCC[C@H]2C(=O)O[C@@H]1C: PAMPA 6 × 10^-6 cm/s
- CC(=O)N[C@@H]1C(=O)N2CCC[C@H]2C(=O)N(C)[C@H](CC(C)C)C(=O)N(C)[C@@H](CC(C)C)C(=O)N(C)[C@H](CC(C)C)C(=O)N(C)[C@@H](CC(C)C)C(=O)N(C)[C@@H](C)C(=O)N[C@@H](CC(C)C)C(=O)N2CCC[C@@H]2C(=O)O[C@@H]1C: PAMPA 2.9 × 10^-6 cm/s
- CC(=O)N1CCC[C@@H]1C(=O)N(C)[C@H](CC(C)C)C(=O)N[C@@H]1C(=O)N[C@H](CC(C)C)C(=O)N[C@H](CC(C)C)C(=O)N[C@H](CC(C)C)C(=O)N(C)[C@H](C)C(=O)N[C@H](CC(C)C)C(=O)N2CCC[C@H]2C(=O)O[C@@H]1C: PAMPA 0.41 × 10^-6 cm/s
- CC(=O)N1CCC[C@H]1C(=O)N(C)[C@@H](CC(C)C)C(=O)N[C@@H]1C(=O)N[C@H](CC(C)C)C(=O)N[C@H](CC(C)C)C(=O)N[C@H](CC(C)C)C(=O)N(C)[C@H](C)C(=O)N[C@H](CC(C)C)C(=O)N2CCC[C@@H]2C(=O)O[C@@H]1C: PAMPA 0.13 × 10^-6 cm/s
- CC(=O)N1CCC[C@H]1C(=O)N(C)[C@H](CC(C)C)C(=O)N[C@@H]1C(=O)N[C@H](CC(C)C)C(=O)N(C)[C@@H](CC(C)C)C(=O)N[C@@H](CC(C)C)C(=O)N(C)[C@@H](C)C(=O)N[C@H](CC(C)C)C(=O)N2CCC[C@@H]2C(=O)O[C@@H]1C: PAMPA 8.3 × 10^-6 cm/s
- CC(=O)N1CCC[C@H]1C(=O)N(C)[C@@H](CC(C)C)C(=O)N[C@@H]1C(=O)N[C@H](CC(C)C)C(=O)N[C@H](CC(C)C)C(=O)N(C)[C@H](CC(C)C)C(=O)N[C@H](C)C(=O)N[C@@H](CC(C)C)C(=O)N2CCC[C@H]2C(=O)O[C@@H]1C: PAMPA 0.48 × 10^-6 cm/s
- CC(=O)N1CCC[C@@H]1C(=O)N(C)[C@@H](CC(C)C)C(=O)N[C@@H]1C(=O)N[C@@H](CC(C)C)C(=O)N[C@H](CC(C)C)C(=O)N[C@@H](CC(C)C)C(=O)N(C)[C@H](C)C(=O)N[C@@H](CC(C)C)C(=O)N2CCC[C@@H]2C(=O)O[C@@H]1C: PAMPA 0.68 × 10^-6 cm/s
- CC(=O)N1CCC[C@@H]1C(=O)N(C)[C@@H](CC(C)C)C(=O)N[C@@H]1C(=O)N(C)[C@H](CC(C)C)C(=O)N[C@@H](CC(C)C)C(=O)N(C)[C@@H](CC(C)C)C(=O)N(C)[C@@H](C)C(=O)N[C@H](CC(C)C)C(=O)N2CCC[C@H]2C(=O)O[C@@H]1C: PAMPA 0.68 × 10^-6 cm/s
- CC(=O)N1CCC[C@@H]1C(=O)N(C)[C@@H](CC(C)C)C(=O)N[C@@H]1C(=O)N(C)[C@@H](CC(C)C)C(=O)N[C@@H](CC(C)C)C(=O)N(C)[C@@H](CC(C)C)C(=O)N(C)[C@@H](C)C(=O)N[C@H](CC(C)C)C(=O)N2CCC[C@@H]2C(=O)O[C@@H]1C: PAMPA 3 × 10^-6 cm/s
- CC(=O)N1CCC[C@@H]1C(=O)N(C)[C@@H](CC(C)C)C(=O)N[C@@H]1C(=O)N(C)[C@H](CC(C)C)C(=O)N[C@@H](CC(C)C)C(=O)N(C)[C@@H](CC(C)C)C(=O)N(C)[C@@H](C)C(=O)N[C@@H](CC(C)C)C(=O)N2CCC[C@H]2C(=O)O[C@@H]1C: PAMPA 4.5 × 10^-6 cm/s
- CC(=O)N1CCC[C@H]1C(=O)N(C)[C@@H](CC(C)C)C(=O)N[C@@H]1C(=O)N(C)[C@H](CC(C)C)C(=O)N(C)[C@H](CC(C)C)C(=O)N(C)[C@@H](CC(C)C)C(=O)N(C)[C@@H](C)C(=O)N[C@@H](CC(C)C)C(=O)N2CCC[C@H]2C(=O)O[C@@H]1C: PAMPA 6.5 × 10^-6 cm/s
- CC(=O)N1CCC[C@H]1C(=O)N[C@@H]1C(=O)N(C)[C@H](CC(C)C)C(=O)N[C@H](CC(C)C)C(=O)N[C@H](CC(C)C)C(=O)N(C)[C@@H](CC(C)C)C(=O)N[C@@H](C)C(=O)N[C@@H](CC(C)C)C(=O)N2CCC[C@@H]2C(=O)O[C@@H]1C: PAMPA 0.79 × 10^-6 cm/s
- CC(=O)N1CCC[C@H]1C(=O)N[C@@H]1C(=O)N(C)[C@H](CC(C)C)C(=O)N[C@H](CC(C)C)C(=O)N[C@H](CC(C)C)C(=O)N(C)[C@H](CC(C)C)C(=O)N(C)[C@@H](C)C(=O)N[C@@H](CC(C)C)C(=O)N2CCC[C@@H]2C(=O)O[C@@H]1C: PAMPA 0.21 × 10^-6 cm/s
- CC(=O)N[C@@H]1C(=O)N2CCC[C@H]2C(=O)N(C)[C@H](CC(C)C)C(=O)N[C@H](CC(C)C)C(=O)N[C@@H](CC(C)C)C(=O)N[C@H](CC(C)C)C(=O)N[C@@H](C)C(=O)N[C@@H](CC(C)C)C(=O)N2CCC[C@@H]2C(=O)O[C@@H]1C: PAMPA 0.068 × 10^-6 cm/s

The first 2 entries again:

* CC(=O)N1CCC[C@@H]1C(=O)N(C)[C@@H](CC(C)C)C(=O)N[C@@H]1C(=O)N[C@H](CC(C)C)C(=O)N[C@H](CC(C)C)C(=O)N(C)[C@H](CC(C)C)C(=O)N[C@H](C)C(=O)N[C@H](CC(C)C)C(=O)N2CCC[C@@H]2C(=O)O[C@@H]1C: PAMPA 1 × 10^-6 cm/s
* CC(=O)N1CCC[C@@H]1C(=O)N(C)[C@H](CC(C)C)C(=O)N[C@@H]1C(=O)N[C@@H](CC(C)C)C(=O)N[C@@H](CC(C)C)C(=O)N(C)[C@H](CC(C)C)C(=O)N(C)[C@H](C)C(=O)N[C@@H](CC(C)C)C(=O)N2CCC[C@H]2C(=O)O[C@@H]1C: PAMPA 1.4 × 10^-6 cm/s